Test [1] deals with integrin α5β1, intact, on wild type K562 cells (human (endogenous in K562)) (UniProt P08648). Description: flow cytometry on cells. (A flow cytometer gives signals particle by particle.)
Test [2] has as its target integrin αVβ1, intact, on K562 αVβ1 stable transfectants (human) (UniProt P06756). The test is described as follows: flow cytometry on cells; intact integrins on K562 cells in L15 medium with 1% BSA, without Mn2+, no washing; titrator's binding read as enhancement of binding of fluorescent 9EG7 Fab (10 nM); EC50 of a three-parameter dose-response fit taken as Kd.

Protein sequences, listed by entry. Tags and fused reporters are not part of them. Residues count along the entry.
UniProt P08648, 42-1049, chain 1 of 2: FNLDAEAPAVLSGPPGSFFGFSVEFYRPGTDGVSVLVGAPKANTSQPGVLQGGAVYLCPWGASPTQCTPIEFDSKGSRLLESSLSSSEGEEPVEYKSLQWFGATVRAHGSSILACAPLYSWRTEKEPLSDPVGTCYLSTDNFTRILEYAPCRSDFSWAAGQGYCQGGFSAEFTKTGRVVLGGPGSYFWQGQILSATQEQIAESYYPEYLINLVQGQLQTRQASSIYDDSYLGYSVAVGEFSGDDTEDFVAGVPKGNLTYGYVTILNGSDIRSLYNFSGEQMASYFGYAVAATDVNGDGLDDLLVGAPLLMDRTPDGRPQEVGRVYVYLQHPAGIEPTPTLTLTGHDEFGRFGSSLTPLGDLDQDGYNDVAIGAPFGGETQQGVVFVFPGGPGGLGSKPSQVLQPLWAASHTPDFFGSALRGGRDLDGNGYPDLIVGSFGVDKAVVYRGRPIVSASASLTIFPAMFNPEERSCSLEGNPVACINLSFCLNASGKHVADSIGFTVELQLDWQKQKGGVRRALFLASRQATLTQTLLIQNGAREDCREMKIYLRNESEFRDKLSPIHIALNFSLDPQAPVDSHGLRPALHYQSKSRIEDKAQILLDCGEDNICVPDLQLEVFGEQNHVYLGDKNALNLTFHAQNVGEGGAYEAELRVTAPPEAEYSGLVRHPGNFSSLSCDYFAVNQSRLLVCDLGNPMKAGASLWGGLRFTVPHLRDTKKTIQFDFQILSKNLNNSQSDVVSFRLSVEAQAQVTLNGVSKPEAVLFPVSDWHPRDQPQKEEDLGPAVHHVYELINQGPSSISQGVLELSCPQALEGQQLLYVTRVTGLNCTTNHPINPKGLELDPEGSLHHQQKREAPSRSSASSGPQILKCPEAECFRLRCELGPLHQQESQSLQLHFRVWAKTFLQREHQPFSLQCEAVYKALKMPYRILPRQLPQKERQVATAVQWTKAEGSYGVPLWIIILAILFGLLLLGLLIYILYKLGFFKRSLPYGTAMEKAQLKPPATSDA
UniProt P06756, 31-1048, chain 1 of 2: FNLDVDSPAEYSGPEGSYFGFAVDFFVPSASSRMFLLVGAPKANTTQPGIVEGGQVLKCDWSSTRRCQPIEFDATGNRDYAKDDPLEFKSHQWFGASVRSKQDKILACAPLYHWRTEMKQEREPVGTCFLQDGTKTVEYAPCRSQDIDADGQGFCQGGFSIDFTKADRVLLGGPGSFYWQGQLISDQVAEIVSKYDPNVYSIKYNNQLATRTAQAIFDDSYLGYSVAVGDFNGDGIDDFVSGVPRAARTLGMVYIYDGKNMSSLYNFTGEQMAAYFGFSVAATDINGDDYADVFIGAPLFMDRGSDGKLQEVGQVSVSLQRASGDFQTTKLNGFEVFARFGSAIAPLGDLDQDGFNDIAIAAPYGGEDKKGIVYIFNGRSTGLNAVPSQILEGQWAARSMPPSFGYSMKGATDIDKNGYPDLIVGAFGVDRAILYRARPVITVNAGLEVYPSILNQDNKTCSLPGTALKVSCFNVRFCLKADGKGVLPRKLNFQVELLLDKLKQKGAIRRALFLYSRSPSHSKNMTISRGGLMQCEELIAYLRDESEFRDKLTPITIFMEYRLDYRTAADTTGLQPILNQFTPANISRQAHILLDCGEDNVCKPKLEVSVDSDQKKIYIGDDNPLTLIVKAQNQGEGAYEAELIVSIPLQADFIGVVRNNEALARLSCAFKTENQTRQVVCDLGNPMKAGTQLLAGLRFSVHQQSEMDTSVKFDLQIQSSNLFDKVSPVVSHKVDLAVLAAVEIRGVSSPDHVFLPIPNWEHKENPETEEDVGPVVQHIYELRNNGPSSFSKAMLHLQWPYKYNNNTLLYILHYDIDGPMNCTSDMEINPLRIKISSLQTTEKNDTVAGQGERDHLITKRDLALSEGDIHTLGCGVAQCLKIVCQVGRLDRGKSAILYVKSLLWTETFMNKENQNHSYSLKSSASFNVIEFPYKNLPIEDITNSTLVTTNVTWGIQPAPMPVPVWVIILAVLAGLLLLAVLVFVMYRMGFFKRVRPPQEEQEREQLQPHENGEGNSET

With “Fn3 9-10 (macromolecule fragment of fibronectin) (domain or fragment)”, the equilibrium dissociation constant (Kd) was determined as 0.93 µM in test [1] and 10 µM in test [2].

For orientation: Kd means the constant that tells how readily two partners part at equilibrium.
